In experiment [1] the target is Hsp90β (Homo sapiens (Human), UniProt P08238). The experiment in a line: Fluorescence polarization assay (FITC-GDA tracer displacement). The format is binding. Conditions: for Kd: fluorescence polarization. In general terms: Polarisation of emitted light reports the rotation of a fluorescent probe.
Experiment [2] concerns HEK-293 cells. The experiment in a line: cells. Conditions: Homo sapiens, HEK293, read-out: IC50, HEK-293.

Protein sequences, listed by entry. Tags and fused reporters are not part of them.
UniProt P08238, whole entry: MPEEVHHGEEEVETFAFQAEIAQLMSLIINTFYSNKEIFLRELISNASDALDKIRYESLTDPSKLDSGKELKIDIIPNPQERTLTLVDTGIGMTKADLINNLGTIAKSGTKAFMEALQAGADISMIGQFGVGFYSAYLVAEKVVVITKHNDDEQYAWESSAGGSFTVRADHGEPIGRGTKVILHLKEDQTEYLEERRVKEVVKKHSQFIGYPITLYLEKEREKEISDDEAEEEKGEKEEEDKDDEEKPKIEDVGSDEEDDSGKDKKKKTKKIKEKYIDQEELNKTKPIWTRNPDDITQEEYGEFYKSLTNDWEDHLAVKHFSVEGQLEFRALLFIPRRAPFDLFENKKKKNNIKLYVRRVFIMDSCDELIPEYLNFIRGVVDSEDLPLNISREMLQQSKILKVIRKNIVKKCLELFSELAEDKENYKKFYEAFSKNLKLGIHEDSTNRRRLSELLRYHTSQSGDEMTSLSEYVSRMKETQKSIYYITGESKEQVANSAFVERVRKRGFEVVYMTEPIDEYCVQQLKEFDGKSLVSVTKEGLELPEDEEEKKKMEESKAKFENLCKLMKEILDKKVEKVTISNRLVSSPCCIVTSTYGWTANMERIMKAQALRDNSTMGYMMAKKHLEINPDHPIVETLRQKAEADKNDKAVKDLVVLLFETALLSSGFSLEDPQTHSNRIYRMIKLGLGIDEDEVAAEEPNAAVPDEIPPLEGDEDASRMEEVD

The Kd is the free concentration of one partner at which half of the binding sites on the other are occupied at equilibrium, for simple one-to-one binding. Read a high Kd as weaker binding. `CC(C)c1cc(C(=O)N2Cc3ccccc3C2)c(O)cc1C=O` [CHO] displayed a Kd in experiment [1] of 240 ± 80 nM.

For `CC(C)c1cc(C(=O)N2Cc3ccccc3C2)c(O)cc1C=O` [Compound 4, 5-Hydroxy-4-(isoindoline-2-carbonyl)-2-isopropylbenzaldehyde], in experiment [1], the “selectivity for Hsp90β over Hsp90α” value is reported as ~4 fold and the Kd is 310 nM.

One may read the IC50 as the midpoint of a concentration-inhibition curve. With `CC(C)c1cc(C(=O)N2Cc3ccccc3C2)c(O)c2cnoc12` [KUNB31a, (4-Hydroxy-7-isopropylbenzo[d]isoxazol-5-yl)(isoindolin-2-yl)methanone], the 50% inhibitory concentration (IC50) in experiment [2] is > 100000 nM.

For the origin of these results see patent US10927076B2, “HSP90B N-terminal isoform-selective inhibitors” (priority 2017, dated 2021).
